# Membrane permeability of cyclic peptides

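The data file gives no further conditions (lipid, pH, time, direction or concentration), and values from different papers need not be comparable. The list need not hold all peptides of the study. Entries at the database's floor value (log10 P of -10) are not listed.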

PAMPA is the parallel artificial membrane permeability assay, which has no cells and reads passive diffusion.
P is given in units of 10^-6 cm/s (from log10 values with two decimals); larger means faster passage.

Listed for CC(=O)N1CCC[C@@H]1C(=O)N(C)[C@H](CC(C)C)C(=O)N[C@@H]1C(=O)N[C@H](CC(C)C)C(=O)N(C)[C@@H](CC(C)C)C(=O)N(C)[C@H](CC(C)C)C(=O)N(C)[C@@H](C)C(=O)N[C@H](CC(C)C)C(=O)N2CCC[C@H]2C(=O)O[C@@H]1C: PAMPA 5 × 10^-6 cm/s. CC(=O)N1CCC[C@H]1C(=O)N(C)[C@H](CC(C)C)C(=O)N[C@@H]1C(=O)N(C)[C@@H](CC(C)C)C(=O)N[C@H](CC(C)C)C(=O)N[C@@H](CC(C)C)C(=O)N[C@@H](C)C(=O)N[C@@H](CC(C)C)C(=O)N2CCC[C@H]2C(=O)O[C@@H]1C has PAMPA 0.32 × 10^-6 cm/s. CC(=O)N1CCC[C@H]1C(=O)N(C)[C@H](CC(C)C)C(=O)N[C@@H]1C(=O)N(C)[C@H](CC(C)C)C(=O)N(C)[C@@H](CC(C)C)C(=O)N(C)[C@H](CC(C)C)C(=O)N(C)[C@H](C)C(=O)N[C@@H](CC(C)C)C(=O)N2CCC[C@H]2C(=O)O[C@@H]1C is reported with PAMPA 3.4 × 10^-6 cm/s. For CC(=O)N1CCC[C@@H]1C(=O)N(C)[C@@H](CC(C)C)C(=O)N[C@@H]1C(=O)N(C)[C@@H](CC(C)C)C(=O)N[C@@H](CC(C)C)C(=O)N(C)[C@H](CC(C)C)C(=O)N[C@@H](C)C(=O)N[C@H](CC(C)C)C(=O)N2CCC[C@@H]2C(=O)O[C@@H]1C the data give PAMPA 0.46 × 10^-6 cm/s. CC(=O)N1CCC[C@H]1C(=O)N(C)[C@@H](CC(C)C)C(=O)N[C@@H]1C(=O)N[C@@H](CC(C)C)C(=O)N(C)[C@@H](CC(C)C)C(=O)N(C)[C@@H](CC(C)C)C(=O)N(C)[C@H](C)C(=O)N[C@@H](CC(C)C)C(=O)N2CCC[C@@H]2C(=O)O[C@@H]1C is reported with PAMPA 4.4 × 10^-6 cm/s. CC(=O)N1CCC[C@H]1C(=O)N(C)[C@H](CC(C)C)C(=O)N[C@@H]1C(=O)N(C)[C@@H](CC(C)C)C(=O)N[C@H](CC(C)C)C(=O)N(C)[C@@H](CC(C)C)C(=O)N(C)[C@@H](C)C(=O)N[C@@H](CC(C)C)C(=O)N2CCC[C@H]2C(=O)O[C@@H]1C has PAMPA 2.8 × 10^-6 cm/s. For CC(=O)N1CCC[C@H]1C(=O)N[C@@H]1C(=O)N(C)[C@H](CC(C)C)C(=O)N(C)[C@H](CC(C)C)C(=O)N(C)[C@@H](CC(C)C)C(=O)N(C)[C@H](CC(C)C)C(=O)N(C)[C@@H](C)C(=O)N[C@@H](CC(C)C)C(=O)N2CCC[C@@H]2C(=O)O[C@@H]1C the data give PAMPA 10 × 10^-6 cm/s. CC(=O)N1CCC[C@@H]1C(=O)N(C)[C@H](CC(C)C)C(=O)N[C@@H]1C(=O)N[C@@H](CC(C)C)C(=O)N[C@H](CC(C)C)C(=O)N[C@@H](CC(C)C)C(=O)N[C@@H](C)C(=O)N[C@H](CC(C)C)C(=O)N2CCC[C@H]2C(=O)O[C@@H]1C has PAMPA 0.11 × 10^-6 cm/s.

Listed for CC(=O)N1CCC[C@@H]1C(=O)N(C)[C@@H](CC(C)C)C(=O)N[C@@H]1C(=O)N[C@@H](CC(C)C)C(=O)N[C@@H](CC(C)C)C(=O)N[C@@H](CC(C)C)C(=O)N(C)[C@@H](C)C(=O)N[C@@H](CC(C)C)C(=O)N2CCC[C@H]2C(=O)O[C@@H]1C: PAMPA 0.4 × 10^-6 cm/s. The entry for CC(=O)N1CCC[C@H]1C(=O)N(C)[C@H](CC(C)C)C(=O)N[C@@H]1C(=O)N(C)[C@@H](CC(C)C)C(=O)N(C)[C@H](CC(C)C)C(=O)N[C@H](CC(C)C)C(=O)N(C)[C@@H](C)C(=O)N[C@@H](CC(C)C)C(=O)N2CCC[C@H]2C(=O)O[C@@H]1C lists PAMPA 1.9 × 10^-6 cm/s. For CC(=O)N1CCC[C@@H]1C(=O)N(C)[C@H](CC(C)C)C(=O)N[C@@H]1C(=O)N[C@H](CC(C)C)C(=O)N[C@H](CC(C)C)C(=O)N[C@@H](CC(C)C)C(=O)N(C)[C@@H](C)C(=O)N[C@@H](CC(C)C)C(=O)N2CCC[C@H]2C(=O)O[C@@H]1C the data give PAMPA 0.058 × 10^-6 cm/s. CC(=O)N1CCC[C@H]1C(=O)N[C@@H]1C(=O)N[C@H](CC(C)C)C(=O)N[C@@H](CC(C)C)C(=O)N[C@H](CC(C)C)C(=O)N(C)[C@@H](CC(C)C)C(=O)N[C@@H](C)C(=O)N[C@@H](CC(C)C)C(=O)N2CCC[C@@H]2C(=O)O[C@@H]1C has PAMPA 1.5 × 10^-6 cm/s. For CC(=O)N1CCC[C@H]1C(=O)N(C)[C@@H](CC(C)C)C(=O)N[C@@H]1C(=O)N(C)[C@H](CC(C)C)C(=O)N(C)[C@@H](CC(C)C)C(=O)N(C)[C@@H](CC(C)C)C(=O)N(C)[C@@H](C)C(=O)N[C@@H](CC(C)C)C(=O)N2CCC[C@@H]2C(=O)O[C@@H]1C the data give PAMPA 3.5 × 10^-6 cm/s. CC(=O)N1CCC[C@@H]1C(=O)N(C)[C@@H](CC(C)C)C(=O)N[C@@H]1C(=O)N[C@H](CC(C)C)C(=O)N(C)[C@H](CC(C)C)C(=O)N[C@H](CC(C)C)C(=O)N[C@H](C)C(=O)N[C@H](CC(C)C)C(=O)N2CCC[C@H]2C(=O)O[C@@H]1C has PAMPA 0.76 × 10^-6 cm/s.

Extract of 2 entries:

{"smiles": "CC(=O)N1CCC[C@H]1C(=O)N(C)[C@H](CC(C)C)C(=O)N[C@@H]1C(=O)N(C)[C@@H](CC(C)C)C(=O)N[C@H](CC(C)C)C(=O)N[C@@H](CC(C)C)C(=O)N[C@@H](C)C(=O)N[C@@H](CC(C)C)C(=O)N2CCC[C@H]2C(=O)O[C@@H]1C", "PAMPA (10^-6 cm/s)": "0.32"}
{"smiles": "CC(=O)N1CCC[C@@H]1C(=O)N(C)[C@@H](CC(C)C)C(=O)N[C@@H]1C(=O)N[C@H](CC(C)C)C(=O)N(C)[C@H](CC(C)C)C(=O)N[C@H](CC(C)C)C(=O)N[C@H](C)C(=O)N[C@H](CC(C)C)C(=O)N2CCC[C@H]2C(=O)O[C@@H]1C", "PAMPA (10^-6 cm/s)": "0.76"}

Collected by the curators of CycPeptMPDB (Li et al. 2023) from Kelly et al. 2021, doi:10.1021/jacs.0c06115.